In patent US4113858A, “Novel compounds, compositions and methods of their use” (St. Luke's Hospital, priority 1976, dated 1978):
Ends that are not written are not given here.

Legend:
[1] = test system: guinea pigs, rabbits and rats; details: for disease induction (conclusion from Tables 1, 1A and 1B): compared to control Group III
[2] = test system: guinea pigs, rats and rabbits; experiment: Prevention experiments, statements for all three species; assay type: in vivo; details: groups I, II and III treated prior to challenge with the disease inducing peptide
Experimental: Pretreatment of the animals with formula (IX) induced the sensitization of cells with the synthetic disease non-inducing peptide which allows the sensitized cells to recognize any agent with the same structural characteristics. Thus, when the disease inducing peptide or the native basic protein is administered at day 7 it is recognized by the synthetic peptide sensitized cells and prevents the native materials from inducing the disease as it does in the group B test animals.

Guinea Pigs = details: Group 9, 4.0 mg daily

| Molecule | disease induction (conclusion from Tables 1, 1A and 1B) [1] | further results |
| --- | --- | --- |
| TTHYGSLPQK [Formula (XI), H -- Thr -- Thr -- His -- Tyr -- Gly -- Ser -- Leu -- Pro -- Gln -- Lys -- OH, reference compound] | the disease is induced | – |
| GGWGGGGQK [Formula (IX), H -- (Gly)2 -- Trp -- (Gly)4 -- Gln -- Lys -- OH] | inactive and does not induce disease | clinical evidence of the disease after challenge [2]: show no clinical evidence of the disease and remain healthy for 90 days; clinical signs of disease (loss of weight, tremors, incontinence) within the expected time, less than 20 days ([1]; 10, 100, 250, 500 and 1500 micrograms single s.c. dose in complete Freund's adjuvant): None of the animals showed any clinical signs of disease; health and growth rate ([1]; observed for more than 90 days): remain healthy and their growth rate is not different from the normal |
| FSWGAEGQK [Formula (X), H -- Phe -- Ser -- Trp -- Gly -- Ala -- Glu -- Gly -- Gln -- Lys -- OH, reference compound] | the disease is induced | – |
| FSWQKFSWQKFSWQKFSWQKG [Compound V, H -- Phe -- Ser -- Trp -- Gln -- Lys]4 Gly -- OH] | – | time until paralyzed animals regained the use of their hind legs (Guinea Pigs): 4-6 treatment days |
| Basic Protein: native protein isolated from bovine myelin known to induce disease (EAE) (protein, UniProt P02687 1-169, looked up) Myelin basic protein: AAQKRPSQRSKYLASASTMDHARHGFLPRHRDTGILDSLGRFFGSDRGAPKRGSGKDGHHAARTTHYGSLPQKAQGHRPQDENPVVHFFKNIVTPRTPPPSQGKGRGLSLSRFSWGAEGQKPGFGYGGRASDYKSAHKGLKGHDAQGTLSKIFKLGGRDSRSGSPMARR | the disease is induced | – |
